The values below come from US9403839B2, “Pyran-spirocyclic piperidine amides as modulators of ion channels” (Vertex Pharmaceuticals Incorporated, priority 2012, dated 2016).

Chains of the proteins cited; added tags and fusions are not shown.
UniProt Q15858, whole entry: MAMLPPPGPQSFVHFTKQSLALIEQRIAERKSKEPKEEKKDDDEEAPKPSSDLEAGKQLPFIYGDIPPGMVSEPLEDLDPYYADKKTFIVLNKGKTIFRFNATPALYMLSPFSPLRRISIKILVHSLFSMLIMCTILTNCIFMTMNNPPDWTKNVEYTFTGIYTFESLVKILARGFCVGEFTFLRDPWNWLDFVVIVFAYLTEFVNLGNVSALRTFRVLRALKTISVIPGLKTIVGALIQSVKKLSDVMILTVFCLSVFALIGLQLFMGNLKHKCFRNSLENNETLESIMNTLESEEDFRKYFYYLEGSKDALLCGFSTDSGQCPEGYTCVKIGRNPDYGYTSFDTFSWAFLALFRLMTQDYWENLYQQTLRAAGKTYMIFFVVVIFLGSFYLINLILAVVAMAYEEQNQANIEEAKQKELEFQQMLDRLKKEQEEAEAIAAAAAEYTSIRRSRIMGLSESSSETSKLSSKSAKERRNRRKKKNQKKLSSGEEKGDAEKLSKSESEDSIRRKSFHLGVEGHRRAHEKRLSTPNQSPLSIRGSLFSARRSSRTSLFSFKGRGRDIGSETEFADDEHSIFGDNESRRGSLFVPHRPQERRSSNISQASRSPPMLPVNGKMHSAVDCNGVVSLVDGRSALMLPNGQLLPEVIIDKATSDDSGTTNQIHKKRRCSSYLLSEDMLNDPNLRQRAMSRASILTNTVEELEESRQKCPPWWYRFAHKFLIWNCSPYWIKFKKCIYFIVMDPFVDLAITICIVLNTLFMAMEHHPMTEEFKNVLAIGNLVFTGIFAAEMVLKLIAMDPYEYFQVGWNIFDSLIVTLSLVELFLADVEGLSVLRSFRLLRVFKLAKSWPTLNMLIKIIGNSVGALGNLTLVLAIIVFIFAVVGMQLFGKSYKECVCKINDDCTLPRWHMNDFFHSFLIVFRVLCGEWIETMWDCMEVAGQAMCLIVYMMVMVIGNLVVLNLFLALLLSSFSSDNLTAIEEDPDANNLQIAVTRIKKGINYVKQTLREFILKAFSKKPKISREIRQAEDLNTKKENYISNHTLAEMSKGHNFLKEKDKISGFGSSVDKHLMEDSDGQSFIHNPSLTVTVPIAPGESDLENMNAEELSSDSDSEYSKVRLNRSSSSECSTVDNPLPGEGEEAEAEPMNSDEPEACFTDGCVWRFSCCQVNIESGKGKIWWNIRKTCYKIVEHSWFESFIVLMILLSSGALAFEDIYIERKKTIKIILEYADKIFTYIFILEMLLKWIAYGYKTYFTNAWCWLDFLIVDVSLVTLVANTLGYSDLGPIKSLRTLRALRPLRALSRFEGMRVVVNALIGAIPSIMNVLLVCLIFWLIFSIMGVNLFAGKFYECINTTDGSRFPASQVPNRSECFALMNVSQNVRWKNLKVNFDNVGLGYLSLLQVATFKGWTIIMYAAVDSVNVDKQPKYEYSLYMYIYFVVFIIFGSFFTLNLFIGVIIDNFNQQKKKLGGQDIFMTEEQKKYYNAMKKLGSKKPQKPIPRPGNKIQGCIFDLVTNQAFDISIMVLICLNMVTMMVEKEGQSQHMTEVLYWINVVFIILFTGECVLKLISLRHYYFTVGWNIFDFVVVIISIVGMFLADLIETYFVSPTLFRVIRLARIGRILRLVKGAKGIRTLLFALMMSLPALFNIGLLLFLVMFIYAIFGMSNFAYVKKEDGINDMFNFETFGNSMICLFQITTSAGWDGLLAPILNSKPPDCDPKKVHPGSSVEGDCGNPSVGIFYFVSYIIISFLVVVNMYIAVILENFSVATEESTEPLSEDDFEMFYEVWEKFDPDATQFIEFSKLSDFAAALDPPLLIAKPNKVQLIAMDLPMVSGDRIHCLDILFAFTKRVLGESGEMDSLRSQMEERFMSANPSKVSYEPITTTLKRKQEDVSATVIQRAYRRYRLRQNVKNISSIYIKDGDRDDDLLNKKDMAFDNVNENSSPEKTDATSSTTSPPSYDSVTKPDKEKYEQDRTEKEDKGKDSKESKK

This assay addresses human NaV subtype, like NaV 1.7 (Homo sapiens, UniProt Q15858). Kind of assay: E-VIPR optical membrane potential assay with electrical stimulation. Conditions: read-out: IC50 Binned Activity Data; one or more sodium channels; assay and NaV subtype not specified for Table 3. From the text: Assays for Detecting and Measuring NaV Inhibition Properties of Compound E-VIPR Optical Membrane Potential Assay Method with Electrical Stimulation
Sodium channels are voltage-dependent proteins that can be activated by inducing membrane voltage changes by applying electric fields. The electrical stimulation instrument and methods of use are described in Ion Channel Assay Methods PCT/US01/21652, herein incorporated by reference and are referred to as E-VIPR. The instrument comprises a microtiter plate handler, an optical system for exciting the coumarin dye while simultaneously recording the coumarin and oxonol emissions, a waveform generator, a current- or voltage-controlled amplifier, and a device for inserting electrodes in well. Under integrated computer control, this instrument passes user-programmed electrical stimulus protocols to cells within the wells of the microtiter plate.
24 hours before the assay on E-VIPR, HEK cells expressing human NaV subtype, like NaV 1.7, are seeded in 384-well poly-lysine coated plates at 15,000-20,000 cells per well. Other subtypes are performed in an analogous mode in a cell line expressing the NaV of interest. HEK cells are grown in media (exact composition is specific to each cell type and NaV subtype) supplemented with 10% FBS (Fetal Bovine Serum, qualified; GibcoBRL #16140-071) and 1% Pen-Strep (Penicillin-Streptomycin; GibcoBRL #15140-122). Cells are grown in vented cap flasks, in 90% humidity and 10% CO2, to 100% confluence. They are usually split by trypsinization 1:10 or 1:20, depending on scheduling needs, and grown for 2-3 days before the next split.
100 mg/mL Pluronic F-127 (Sigma #P2443), in dry DMSO
Compound Plates: 384-well round bottom plate, e.g. Corning 384-well Polypropylene Round Bottom #3656
Cell Plates: 384-well tissue culture treated plate, e.g. Greiner #781091-1B
Bath1 buffer. Glucose 10 mM (1.8 g/L), Magnesium Chloride (Anhydrous), 1 mM (0.095 g/L), Calcium Chloride, 2 mM (0.222 g/L), HEPES 10 mM (2.38 g/L), Potassium Chloride, 4.5 mM (0.335 g/L), Sodium Chloride 160 mM (9.35 g/L).
Hexyl Dye Solution: Bath1 Buffer+0.5% β-cyclodextrin (make this prior to use, Sigma #C4767), 8 μM CC2-DMPE+2.5 μM DiSBAC6(3). To make the solution Add volume of 10% Pluronic F127 stock equal to volumes of CC2-DMPE+DiSBAC6(3). The order of preparation is first mix Pluronic and CC2-DMPE, then add DiSBAC6(3) while vortexing, then add Bath1+β-Cyclodextrin.
1) Pre-spot compounds (in neat DMSO) into compound plates. Vehicle control (neat DMSO), the positive control (20 mM DMSO stock tetracaine, 125 μM final in assay) and test compounds are added to each well at 160× desired final concentration in neat DMSO. Final compound plate volume will be 80 μL (80-fold intermediate dilution from 1 μL DMSO spot; 160-fold final dilution after transfer to cell plate). Final DMSO concentration for all wells in assay is 0.625%.
2) Prepare Hexyl Dye Solution.
3) Prepare cell plates. On the day of the assay, medium is aspirated and cells are washed three times with 100 μL of Bath1 Solution, maintaining 25 μL residual volume in each well.
4) Dispense 25 μL per well of Hexyl Dye Solution into cell plates. Incubate for 20-35 minutes at room temp or ambient conditions.
5) Dispense 80 μL per well of Bath1 into compound plates. Acid Yellow-17 (1 mM) is added and Potassium Chloride can be altered from 4.5 to 20 mM depending on the NaV subtype and assay sensitivity.
6) Wash cell plates three times with 100 μL per well of Bath1, leaving 25 of residual volume. Then transfer 25 uL per well from Compound Plates to Cell Plates. Incubate for 20-35 minutes at room temp/ambient condition
7) Read Plate on E-VIPR. Use the current-controlled amplifier to deliver stimulation wave pulses for typically 9 seconds and a scan rate of 400 Hz. A pre-stimulus recording is performed for 0.5 seconds to obtain the un-stimulated intensities baseline. […]

For the molecule `CCOC1CC(c2ccc(F)cc2)OC2(CCN(C(=O)c3ccc(S(=O)(=O)NC4CC4)cc3)CC2)C1` (centres unmarked), the IC50 was less than 2000 nM.

In the case of `CCOC1CC(c2ccccc2)OC2(CCN(C(=O)c3ccc(OC(C)C)c(C)n3)CC2)C1` (centres unmarked), the IC50 was less than 2000 nM.

Turning to `CCOC1CC(c2ccccc2)OC2(CCN(C(=O)c3cc(C)ccc3F)CC2)C1` (centres unmarked), the IC50 is more than 5000 nM.

Take `CCOC1CC(c2ccccc2)OC2(CCN(C(=O)c3cc(-c4ccccc4)n(C)n3)CC2)C1` (centres unmarked): the IC50 was less than 2000 nM.

On to `CCOC1CC(c2cccnc2)OC2(CCN(C(=O)c3ccc(OC(C)C)c(C)c3)CC2)C1` (single isomer, unassigned) [146], for which the concentration for half-maximal inhibition (IC50) is less than 2000 nM.

With `CCOC1CC(c2ccccc2)OC2(CCN(C(=O)c3cn4cc(Cl)ccc4n3)CC2)C1` (centres unmarked), the IC50 fell in the range of 2000 to 5000 nM.

In the case of `CCOc1ccc(C(=O)N2CCC3(CC2)CC(OCC)CC(c2ccc(F)cc2)O3)cc1OC` (centres unmarked), the IC50 was less than 2000 nM.

For `CCOC1CC(c2ccccc2)OC2(CCN(C(=O)c3ccccc3OC)CC2)C1` (centres unmarked), the IC50 is less than 2000 nM.

As to `CCOC1CC(c2ccccc2)OC2(CCN(C(=O)c3ccc(C(C)(C)O)c(F)c3)CC2)C1` (centres unmarked), the IC50 was less than 2000 nM.

As to `CCOC1CC(c2ccccc2)OC2(CCN(C(=O)c3cn4cc(C)ccc4n3)CC2)C1` (centres unmarked), the IC50 lay in the range of 2000 to 5000 nM.

Consider `CCOC1CC(c2ccccc2)OC2(CCN(C(=O)c3cn(C)c4ccccc34)CC2)C1` (centres unmarked), for which the IC50 was less than 2000 nM.

Regarding `CCOC1CC(c2ccccn2)OC2(CCN(C(=O)c3ccc(S(=O)(=O)C(F)F)cc3)CC2)C1` (centres unmarked), the IC50 lay in the range of 2000 to 5000 nM.

Take `CCOC1CC(c2scnc2C)OC2(CCN(C(=O)c3ccc(OC(C)C)c(C)c3)CC2)C1` (centres unmarked): the IC50 was less than 2000 nM.

For the molecule `CCOC1CC(c2ccccc2)OC2(CCN(C(=O)c3ccc(OCC(C)(C)F)c(OC)c3)CC2)C1` (centres unmarked), the IC50 is less than 2000 nM.

Regarding `CCOC1CC(c2ccccc2)OC2(CCN(C(=O)c3ccnc(N(C)C)c3)CC2)C1` (centres unmarked), the IC50 is 2000 to 5000 nM.

Turning to `CCOC1CC(c2ccccc2)OC2(CCN(C(=O)c3ccc(S(=O)(=O)C(F)(F)F)cc3)CC2)C1` (centres unmarked), the IC50 was less than 2000 nM.

Regarding `CCOC1CC(c2ccccc2)OC2(CCN(C(=O)c3ccc(OC)nc3OC)CC2)C1` (centres unmarked), the IC50 was less than 2000 nM.

For `CCOC1CC(c2ccccc2)OC2(CCN(C(=O)c3ccccc3C)CC2)C1` (centres unmarked), the IC50 was more than 5000 nM.

For `CCOC1CC(c2ccccc2)OC2(CCN(C(=O)c3cccc4c3OCC4)CC2)C1` (centres unmarked), the IC50 was less than 2000 nM.

For the molecule `CCOC1CC(c2cncc(OC)c2)OC2(CCN(C(=O)c3ccc(OC(C)C)c(C)c3)CC2)C1` (centres unmarked), the IC50 was less than 2000 nM.

On to `CCOc1ccc(C(=O)N2CCC3(CC2)CC(OCC)CC(c2ccc(F)cc2)O3)cc1F` (centres unmarked), for which the IC50 lay in the range of 2000 to 5000 nM.

For `CCOC1CC(c2ccccc2)OC2(CCN(C(=O)c3ccc(OCCO)c(OC)c3)CC2)C1` (centres unmarked), the IC50 was more than 5000 nM.

Take `CCOC1CC(c2ccccc2)OC2(CCN(C(=O)c3ccc(C(F)(F)F)cn3)CC2)C1` (centres unmarked): the IC50 was 2000 to 5000 nM.

As to `COCCOC1CC(c2ccccc2)OC2(CCN(C(=O)c3ccc(OC(C)C)c(OC)c3)CC2)C1` (centres unmarked), the half-inhibitory concentration (IC50) was less than 2000 nM.

Turning to `CCOC1CC(c2ccc(F)cc2)OC2(CCN(C(=O)c3ccc(OC(C)C)c(F)c3)CC2)C1` (centres unmarked), the IC50 was less than 2000 nM.

Turning to `CCOC1CC(c2ccccn2)OC2(CCN(C(=O)c3ccc(OC(C)C)c(C)c3)CC2)C1` (centres unmarked), the IC50 was less than 2000 nM.

Consider `CCOC1CC(c2ccccc2)OC2(CCN(C(=O)c3ccccc3COC)CC2)C1` (centres unmarked), for which the half-maximal inhibitory concentration (IC50) is 2000 to 5000 nM.

Turning to `CCOC1CC(C2CC2)OC2(CCN(C(=O)c3ccc(OC(C)C)c(C)c3)CC2)C1` (centres unmarked), the IC50 was 2000 to 5000 nM.

For `CCOC1CC(c2ccccc2)OC2(CCN(C(=O)c3ccc(OCC(C)(C)O)cc3)CC2)C1` (centres unmarked), the IC50 was less than 2000 nM.

As to `CCOC1CC(c2ccccc2)OC2(CCN(C(=O)c3ccc(N4CCCCC4)nc3)CC2)C1` (centres unmarked), the IC50 is less than 2000 nM.

With `CCNc1ncccc1C(=O)N1CCC2(CC1)CC(OCC)CC(c1ccccc1)O2` (centres unmarked), the IC50 was 2000 to 5000 nM.

With `CCOC1CC(c2ccccc2)OC2(CCN(C(=O)c3cccc(F)c3C)CC2)C1` (centres unmarked), the IC50 was more than 5000 nM.

On to `CCOC1CC(c2ccccc2)OC2(CCN(C(=O)c3cccnc3OC)CC2)C1` (centres unmarked), for which the IC50 was 2000 to 5000 nM.

With `CCOc1c(C)cccc1C(=O)N1CCC2(CC1)CC(OCC)CC(c1ccccc1)O2` (centres unmarked), the IC50 was less than 2000 nM.

`COC1CC(c2cccnc2)OC2(CCN(C(=O)c3ccc(OC(C)C)c(C)n3)CC2)C1` (centres unmarked): the 50% inhibitory concentration (IC50) was more than 5000 nM.

Consider `COC1CC(c2cccnc2)OC2(CCN(C(=O)c3ccc(OC(C)C)c(C)c3)CC2)C1` (centres unmarked), for which the half-inhibitory concentration (IC50) lay within 2000 to 5000 nM.

As for `CCOC1CC(c2ccnn2C)OC2(CCN(C(=O)c3ccc(OC(C)C)c(C)c3)CC2)C1` (centres unmarked), the IC50 lay within 2000 to 5000 nM.

Consider `CCOC1CC(c2ccccc2)OC2(CCN(C(=O)c3cccc(F)c3OC)CC2)C1` (centres unmarked), for which the IC50 is less than 2000 nM.

With `CCOC1CC(c2cnc(C)s2)OC2(CCN(C(=O)c3ccc(OC(C)C)c(C)c3)CC2)C1` (centres unmarked), the IC50 was less than 2000 nM.

For the molecule `CCOC1CC(c2ccccc2)OC2(CCN(C(=O)c3ccc(OCC(C)(C)O)c(C)c3)CC2)C1` (centres unmarked), the IC50 was less than 2000 nM.

As to `CCOC1CC(c2ccccc2)OC2(CCN(C(=O)c3ccc(COCCC(F)(F)F)c(OC)c3)CC2)C1` (centres unmarked), the IC50 is less than 2000 nM.

For the molecule `CCOC1CC(c2ccccc2)OC2(CCN(C(=O)c3ccnc(C(C)(C)C)c3)CC2)C1` (centres unmarked), the IC50 lay in the range of 2000 to 5000 nM.

On to `COCCOC1CC(c2cccnc2)OC2(CCN(C(=O)c3ccc(OC(C)C)c(C)c3)CC2)C1` (centres unmarked), for which the IC50 lay in the range of 2000 to 5000 nM.

Consider `CCOC1CC(c2ccccc2)OC2(CCN(C(=O)c3ccc(C(C)(O)CC)cc3)CC2)C1` (centres unmarked), for which the IC50 is less than 2000 nM.

Consider `CCOC1CC(c2ccccc2)OC2(CCN(C(=O)c3ccc(OC)c(C)c3)CC2)C1` (centres unmarked), for which the IC50 is less than 2000 nM.

`Cc1cc(C(=O)N2CCC3(CC2)CC(OCC2CC2)CC(c2cccnc2)O3)ccc1OC(C)C` (centres unmarked): the IC50 is less than 2000 nM.

With `CCOC1CC(c2ccccc2)OC2(CCN(C(=O)c3cccnc3OCC(F)(F)F)CC2)C1` (centres unmarked), the IC50 is less than 2000 nM.

In the case of `CCOC1CC(c2ccccc2)OC2(CCN(C(=O)c3cccnc3NCC(C)C)CC2)C1` (centres unmarked), the IC50 was less than 2000 nM.

`CCOC1CC(c2ccccc2)OC2(CCN(C(=O)c3cccc4nccnc34)CC2)C1` (centres unmarked): the IC50 was less than 2000 nM.

For the molecule `Cc1cc(C(=O)N2CCC3(CC2)CC(OCCF)CC(c2cccnc2)O3)ccc1OC(C)C` (centres unmarked), the IC50 is less than 2000 nM.

For the molecule `CCOC1CC(c2ccccc2)OC2(CCN(C(=O)c3ccc(CN4CCOCC4)cc3)CC2)C1` (centres unmarked), the IC50 was in the range of 2000 to 5000 nM.

On to `CCOC1CC(c2ccccc2)OC2(CCN(C(=O)c3ccc(N4CCOCC4)nc3)CC2)C1` (centres unmarked), for which the IC50 was more than 5000 nM.

As for `CCOC1CC(c2cccnc2)OC2(CCN(C(=O)c3cnc(OC(C)C)c(C)c3)CC2)C1` (centres unmarked), the IC50 was more than 5000 nM.

With `CCOC1CC(c2ccccc2)OC2(CCN(C(=O)c3cc4ccccc4cn3)CC2)C1` (centres unmarked), the IC50 lay in the range of 2000 to 5000 nM.

Take `CCOC1CC(c2ccccc2)OC2(CCN(C(=O)c3ccc(C(C)(C)O)c(C)c3)CC2)C1` (centres unmarked): the concentration for half-maximal inhibition (IC50) was less than 2000 nM.

`CCOC1CC(c2ccccc2)OC2(CCN(C(=O)c3ccc(C4(O)CCCC4)cc3)CC2)C1` (centres unmarked): the IC50 is less than 2000 nM.

As to `CCOC1CC(c2ccc(F)cc2)OC2(CCN(C(=O)c3ccc(CC(C)(C)O)c(F)c3)CC2)C1` (centres unmarked), the IC50 was less than 2000 nM.

Take `CCOC1CC(c2ccccc2)OC2(CCN(C(=O)c3nccc4ccccc34)CC2)C1` (centres unmarked): the IC50 fell in the range of 2000 to 5000 nM.

As for `CCOC1CC(c2ccccc2)OC2(CCN(C(=O)c3ccnc(N4CCCCC4)c3)CC2)C1` (centres unmarked), the IC50 is less than 2000 nM.

With `CCOC1CC(c2ccccc2)OC2(CCN(C(=O)c3ccc(OCC(C)C)c(OC)c3)CC2)C1` (centres unmarked), the concentration for half-maximal inhibition (IC50) was less than 2000 nM.

`CCOC1CC(c2cccnc2)OC2(CCN(C(=O)c3ccc(CC)c(OC)c3)CC2)C1` (centres unmarked): the IC50 was more than 5000 nM.

In the case of `CCOC1CC(c2ccccc2)OC2(CCN(C(=O)c3ccc(C(O)C(C)C)cc3)CC2)C1` (centres unmarked), the IC50 was less than 2000 nM.
